In publication PMC12457114, “Comparison of the pharmacokinetic profiles of three triterpenoids after oral administration of a cucurbitacin tablet and nanosuspension by UHPLC-MS/MS” (Frontiers in Pharmacology, 2025):

Key:
[1] = Pharmacokinetic study in rats after oral administration of CUT and MP-NPs, plasma by UHPLC-MS/MS; assay type: in vivo, Sprague Dawley (SD) rats; conditions: n = 6, mean ± SD
Description: An Agilent 6430 triple quadrupole mass spectrometer with an ESI source interface (Agilent Technologies, Santa Clara, CA, United States) was used in conjunction with an Agilent 1290 UHPLC system (Agilent Technologies). A Waters ACQUITY HSS T3 Column (1.8 μm, 2.1 × 100 mm) (Waters, Manchester, UK) was also used for the separations. Gradient elution was performed using water (A) and methanol (B) as mobile phases. The gradient elution procedure was used for 0.0–1.0 min, 80%–80% B; 1.0–1.5 min, 80%–90% B; 1.5–3.0 min, 90%–90% B; 3.0–3.2 min, 90%–80% B; and 3.2–4 min, 80%–80% B. The analytical temperature was 35 °C, and the flow rate was 0.3 mL/min. An injection of 5 μL volume was administered, after which the needle was washed. Positive ion-mode analysis was performed for the samples. The capillary voltage was set to 4500 V, source temperature to 100 °C, and the desolvation temperature to 350 °C ([Wang et al., 2014]). High-purity nitrogen was used as the nebulizing gas, and nitrogen was used as the drying gas at a flow rate of 11 L/min. The Agilent Mass Hunter workstation was used to gather the experimental data ([Wang Z et al., 2023]). Using specific precursor and product ion transitions at m/z 581.2→521.9 for CuB, m/z 539.3→480.2 for CuD, m/z 578.9→520.9 for CuE, and m/z 418.9→387.1 for IS at various fragmentor voltage (FV) and collision energy (CE) conditions listed in Table 1, quantification was accomplished using multiple reaction monitoring (MRM) mode.
A total of 12 male Sprague Dawley (SD) rats (weight: 220 ± 20 g) were provided by the Animal Experiment Center of Heilongjiang University of Traditional Chinese Medicine (Production license number: SYXK (Hei) 2021-010). The Laboratory Animal Ethics Committee of Heilongjiang University of Traditional Chinese Medicine approved the study (Approval No.: 2024053114).
Animals were randomly assigned to the following two experimental groups (n = 6 per group): CUT and MP-NPs. Treatments were administered once daily for seven consecutive days, with the plasma sampling performed at predetermined time points after administration. Dosage was calculated based on human-equivalent doses converted to rat pharmacokinetic parameters using interspecies scaling factors. The human-rat dose conversion procedure was used to determine the dose of CUT per rat to be 0.03 g. The recommended daily dosage for humans is 6 tablets. The dose of MP-NPs per rat was determined to be 0.06 g per rat using the human-rat dose conversion formula, whereas the dose of P. Melo for human usage was 3 g, with reference to the Pharmacopoeia of the People’s Republic of China 2025.
At 0.083, 0.25, 0.50, 1, 1.5, 2, 2.5, 3, 4, 6, 8, 12, and 24 h following oral administration of CUT and MP-NPs, 0.25 mL of plasma samples were sampled by rapidly collecting and centrifuging at 4 °C, followed by freezing at −20 °C for further analysis ([Yu et al., 2023]).
Blank plasma sample (100 μL) was vortexed for 60 s after adding 100 μL of IS. To guarantee complete extraction, 3 mL of dichloromethane was then added to each sample, followed by vortexing for 120 s. Subsequently, the samples were centrifuged for 10 min at 4 °C and 3,500 rpm. At 40 °C, the […] organic phase was carefully moved into a sterile tube, dried off with a mild stream of nitrogen gas, and then reconstituted in 100 μL of the original mobile phase. Following a 120 s vortex, the extracts were filtered through a 0.22 μm Millipore filter before subjecting them to quantitative analyses by injecting 5 μL of them into the UHPLC-MS/MS apparatus.
The established UHPLC-MS/MS method was applied to simultaneously measure the plasma concentrations of the three analytes in rats following dose administration. Pharmacokinetic parameters have attracted attention in exploring drug absorption and distribution. These parameters include T 1/2, C max, T max, and AUC (Table 6). The pharmacokinetics of SD rats following oral administration of CUT and MP-NPs were investigated through UHPLC-MS/MS. […]

[2] = Stability of the analytes in rat plasma under different storage conditions; assay type: in vitro ADME; conditions: for Stability (RE%) Post-preparative / Stability (RE%) Short-term / Stability (RE%) Long-term / Stability (RE%) Freeze-thaw: rat plasma, n = 6; for Stability (RE%) Short-term: ambient temperature (25 °C) for 4 h; for Stability (RE%) Freeze-thaw: three freeze-thaw cycles (−20 °C/room temperature)
From the text: Table 5 outlines the stability of LQC, MQC, and HQC in the rat plasma under different storage conditions. […] The RSD for these conditions was ≤11.01%, confirming minimal variability.

[3] = CUT group, oral cucurbitacin tablet 0.03 g per rat
[4] = MP-NPs group, oral MP-NPs(PVP-K30) 0.06 g per rat
[5] = HQC (spiked 300.2 CuB, 600.2 CuD, 300.8 CuE ng/mL)
[6] = LQC (spiked 5.272 CuB, 25.30 CuD, 5.257 CuE ng/mL)
[7] = MQC (spiked 150.1 CuB, 300.1 CuD, 150.4 CuE ng/mL)

In the case of cucurbitacin B [CuB], the “AUC 0→t” value [1, 3] is reported as 617.9 ± 88.56 ng·h/mL, the “AUC0→∞” value [1, 3] is reported as 708.1 ± 77.29 ng·h/mL and the C max [1, 3] is reported as 142.1 ± 22.24 ng/mL. The “T 1/2” value [1, 3] was 4.871 ± 1.121 h, the T max [1, 3] was 2.421 ± 0.3810 h and the “AUC 0→t” value [1, 4] was 875.5 ± 217.1 ng·h/mL. For the same substance, the “AUC0→∞” value [1, 4] was 975.7 ± 255.4 ng·h/mL, the C max [1, 4] was 228.6 ± 11.97 ng/mL and the “T 1/2” value [1, 4] was 4.569 ± 1.033 h. The T max [1, 4] was 1.922 ± 0.3831 h, the “Stability (RE%) Post-preparative” value ([2]; HQC (spiked 300.2 CuB, 600.2 CuD, 300.8 CuE ng/mL), 12 h at 4 °C post-sample preparation) was −8.081% and the “Stability (RE%) Short-term” value [2, 5] was −6.496%. The “Stability (RE%) Long-term” value ([2]; HQC (spiked 300.2 CuB, 600.2 CuD, 300.8 CuE ng/mL), storage at −20 °C) was −8.414%, the “Stability (RE%) Freeze-thaw” value [2, 5] was −6.654% and the “Stability (RE%) Post-preparative” value ([2]; LQC (spiked 5.272 CuB, 25.30 CuD, 5.257 CuE ng/mL), 12 h at 4 °C post-sample preparation) was −6.702%. The “Stability (RE%) Short-term” value [2, 6] was −6.465%, the “Stability (RE%) Long-term” value ([2]; LQC (spiked 5.272 CuB, 25.30 CuD, 5.257 CuE ng/mL), storage at −20 °C) was 4.471% and the “Stability (RE%) Freeze-thaw” value [2, 6] was −3.215%. The “Stability (RE%) Post-preparative” value ([2]; MQC (spiked 150.1 CuB, 300.1 CuD, 150.4 CuE ng/mL), 12 h at 4 °C post-sample preparation) was −10.45%, the “Stability (RE%) Short-term” value [2, 7] was −3.932% and the “Stability (RE%) Long-term” value ([2]; MQC (spiked 150.1 CuB, 300.1 CuD, 150.4 CuE ng/mL), storage at −20 °C) was −11.01%. The “Stability (RE%) Freeze-thaw” value [2, 7] was −7.542% and the “Stability in rat plasma (in words)” value ([2]; storage at −20 °C, 25 °C for 4 h, three freeze-thaw cycles, 12 h at 4 °C post-sample preparation) was “remained stable”.
